Experimental data taken from patent EP4831173A1, “TYK2 INHIBITOR AND USE THEROF” (dated 2026).

Chains of the proteins cited; added tags and fusions are not shown. Residues count along the entry.
UniProt P29597, 589-875 limits assumed: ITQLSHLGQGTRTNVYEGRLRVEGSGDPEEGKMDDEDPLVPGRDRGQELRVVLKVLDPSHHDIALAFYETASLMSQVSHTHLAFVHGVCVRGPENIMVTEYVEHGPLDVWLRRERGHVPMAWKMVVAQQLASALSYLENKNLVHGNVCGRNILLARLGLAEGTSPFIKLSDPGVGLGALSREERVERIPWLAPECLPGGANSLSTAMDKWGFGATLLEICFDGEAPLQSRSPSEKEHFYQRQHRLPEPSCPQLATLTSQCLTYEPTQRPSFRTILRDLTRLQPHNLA
UniProt P29597, whole entry: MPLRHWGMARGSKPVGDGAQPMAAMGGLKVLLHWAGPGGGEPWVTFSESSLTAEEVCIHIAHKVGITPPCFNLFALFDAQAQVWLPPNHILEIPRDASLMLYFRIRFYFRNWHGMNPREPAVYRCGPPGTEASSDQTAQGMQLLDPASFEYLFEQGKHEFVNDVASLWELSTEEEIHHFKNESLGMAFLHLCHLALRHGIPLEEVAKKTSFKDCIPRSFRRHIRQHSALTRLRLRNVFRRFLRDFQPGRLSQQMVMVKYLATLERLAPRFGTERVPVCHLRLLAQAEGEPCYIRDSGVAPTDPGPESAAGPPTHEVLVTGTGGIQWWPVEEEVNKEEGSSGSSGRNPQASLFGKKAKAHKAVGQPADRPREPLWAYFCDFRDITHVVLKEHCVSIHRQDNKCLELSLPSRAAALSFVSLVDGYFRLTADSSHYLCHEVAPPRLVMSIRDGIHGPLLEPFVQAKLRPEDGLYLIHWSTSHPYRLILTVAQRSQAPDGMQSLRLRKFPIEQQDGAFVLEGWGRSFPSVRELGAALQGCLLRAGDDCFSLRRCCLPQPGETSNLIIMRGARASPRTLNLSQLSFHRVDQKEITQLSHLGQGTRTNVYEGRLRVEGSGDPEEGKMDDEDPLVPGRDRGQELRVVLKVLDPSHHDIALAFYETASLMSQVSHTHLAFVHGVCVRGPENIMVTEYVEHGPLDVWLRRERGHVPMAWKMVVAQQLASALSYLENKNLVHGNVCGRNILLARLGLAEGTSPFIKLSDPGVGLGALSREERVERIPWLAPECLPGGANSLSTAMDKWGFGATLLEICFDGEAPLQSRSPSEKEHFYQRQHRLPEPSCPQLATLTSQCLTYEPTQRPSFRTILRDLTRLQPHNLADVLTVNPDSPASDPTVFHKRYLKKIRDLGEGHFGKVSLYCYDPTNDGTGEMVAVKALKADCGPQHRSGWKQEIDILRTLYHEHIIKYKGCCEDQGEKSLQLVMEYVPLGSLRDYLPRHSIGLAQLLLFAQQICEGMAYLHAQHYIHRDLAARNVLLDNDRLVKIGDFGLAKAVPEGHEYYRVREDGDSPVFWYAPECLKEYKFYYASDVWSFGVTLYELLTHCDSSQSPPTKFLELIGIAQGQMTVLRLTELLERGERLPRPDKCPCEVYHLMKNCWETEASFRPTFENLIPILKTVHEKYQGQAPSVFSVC
UniProt P29597, 897-1176 limits assumed: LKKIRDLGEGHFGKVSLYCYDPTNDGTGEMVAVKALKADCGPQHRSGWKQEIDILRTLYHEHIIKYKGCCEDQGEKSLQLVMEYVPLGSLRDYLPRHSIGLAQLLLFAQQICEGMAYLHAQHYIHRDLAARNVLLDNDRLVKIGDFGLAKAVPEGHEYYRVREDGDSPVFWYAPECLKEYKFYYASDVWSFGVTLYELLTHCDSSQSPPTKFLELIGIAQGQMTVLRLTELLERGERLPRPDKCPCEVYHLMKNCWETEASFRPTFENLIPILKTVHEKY
UniProt P52333, 822-1111 limits assumed: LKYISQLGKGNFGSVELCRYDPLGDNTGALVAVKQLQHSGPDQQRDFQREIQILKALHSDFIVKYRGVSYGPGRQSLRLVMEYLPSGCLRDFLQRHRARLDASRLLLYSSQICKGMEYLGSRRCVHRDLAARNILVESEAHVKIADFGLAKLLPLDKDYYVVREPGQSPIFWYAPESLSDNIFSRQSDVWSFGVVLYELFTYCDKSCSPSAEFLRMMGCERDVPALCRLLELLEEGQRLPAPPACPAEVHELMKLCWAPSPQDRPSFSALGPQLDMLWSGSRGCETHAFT
UniProt P23458, whole entry partner: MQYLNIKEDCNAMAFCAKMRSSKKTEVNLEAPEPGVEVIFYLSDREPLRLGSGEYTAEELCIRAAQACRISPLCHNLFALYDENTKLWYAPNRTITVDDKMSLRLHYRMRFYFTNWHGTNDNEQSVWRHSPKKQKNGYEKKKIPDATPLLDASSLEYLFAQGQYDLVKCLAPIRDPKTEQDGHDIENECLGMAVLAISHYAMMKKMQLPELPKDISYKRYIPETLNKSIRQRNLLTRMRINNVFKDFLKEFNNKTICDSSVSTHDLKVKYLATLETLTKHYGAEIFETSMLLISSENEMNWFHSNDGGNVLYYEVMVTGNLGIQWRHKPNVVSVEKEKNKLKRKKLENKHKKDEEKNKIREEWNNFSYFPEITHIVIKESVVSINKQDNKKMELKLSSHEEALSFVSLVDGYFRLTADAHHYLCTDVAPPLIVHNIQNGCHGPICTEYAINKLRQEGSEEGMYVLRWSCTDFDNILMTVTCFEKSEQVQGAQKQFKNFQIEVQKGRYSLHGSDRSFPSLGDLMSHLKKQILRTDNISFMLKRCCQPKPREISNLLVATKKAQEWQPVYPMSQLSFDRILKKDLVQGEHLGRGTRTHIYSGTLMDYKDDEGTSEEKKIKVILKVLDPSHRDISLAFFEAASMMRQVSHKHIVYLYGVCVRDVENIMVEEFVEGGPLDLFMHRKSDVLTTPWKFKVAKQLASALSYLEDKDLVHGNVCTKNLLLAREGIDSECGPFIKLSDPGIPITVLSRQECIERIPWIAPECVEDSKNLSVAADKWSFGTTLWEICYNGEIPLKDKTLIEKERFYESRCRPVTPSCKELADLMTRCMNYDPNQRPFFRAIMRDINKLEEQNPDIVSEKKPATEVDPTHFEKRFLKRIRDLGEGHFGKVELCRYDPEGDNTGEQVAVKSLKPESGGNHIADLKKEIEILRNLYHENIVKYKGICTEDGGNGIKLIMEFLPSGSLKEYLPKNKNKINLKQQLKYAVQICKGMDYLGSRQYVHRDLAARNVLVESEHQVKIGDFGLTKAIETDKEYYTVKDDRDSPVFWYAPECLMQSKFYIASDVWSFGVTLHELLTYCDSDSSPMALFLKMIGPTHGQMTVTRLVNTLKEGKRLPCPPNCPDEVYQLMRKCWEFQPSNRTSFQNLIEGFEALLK
UniProt P23458, 875-1153 limits assumed: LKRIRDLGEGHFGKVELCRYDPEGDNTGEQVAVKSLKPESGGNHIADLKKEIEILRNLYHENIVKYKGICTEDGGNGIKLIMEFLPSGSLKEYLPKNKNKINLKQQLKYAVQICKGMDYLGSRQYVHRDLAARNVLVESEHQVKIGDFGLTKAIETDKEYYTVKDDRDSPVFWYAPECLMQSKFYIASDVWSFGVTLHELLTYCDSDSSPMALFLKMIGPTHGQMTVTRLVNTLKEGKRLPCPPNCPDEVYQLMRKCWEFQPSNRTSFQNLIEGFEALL
UniProt O60674, 849-1124 limits assumed: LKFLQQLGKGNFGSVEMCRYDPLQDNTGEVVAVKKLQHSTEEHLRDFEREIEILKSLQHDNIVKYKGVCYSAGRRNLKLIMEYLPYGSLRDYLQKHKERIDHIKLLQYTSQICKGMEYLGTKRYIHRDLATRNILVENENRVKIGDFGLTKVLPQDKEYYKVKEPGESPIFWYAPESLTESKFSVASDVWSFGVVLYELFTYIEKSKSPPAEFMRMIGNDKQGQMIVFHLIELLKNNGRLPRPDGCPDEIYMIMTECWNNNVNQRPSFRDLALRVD

Key:
TYK2 pseudokinase domain = TYK2 pseudokinase domain (Homo sapiens, UniProt P29597); assay: TYK2 JH2 pseudokinase domain binding affinity, fluorescence polarization (BPS Bioscience inhibitor screening kit); conditions: read-out: TYK2 JH2 IC50; polarized fluorescence, 25°C, 1 hour
Procedure: Experimental Example 1: Analysis of domain binding affinity to TYK2 pseudokinase
In order analyze the binding affinity of a test compound to the TYK2 pseudokinase domain, a polarized fluorescence-based TYK2 JH2 Pseudokinase Domain Inhibitor Screening Assay Kit (BPS bioscience) was used. The evaluation of the compound was performed according to the manufacturer's protocol, and the method thereof is as follows:
The test compound or control compound (Deucravacitnib) was serially diluted in DMSO, and then diluted 1/10 with distilled water to prepare 10x compound solution. After mixing the compound solution with Probe 1 prepared with a binding reaction buffer (JH2 binding buffer), a reaction was performed at 25°C for 10 minutes. Next, the reaction was initiated by adding a TYK2 pseudokinase domain enzyme prepared with the binding reaction buffer. The reaction was performed in a black 384-well plate at 25 °C for 1 hour. Polarized fluorescence was measured using Synergy neo (BioTek Instruments, Inc.).

TYK2 JH1 = TYK2 JH1 (Homo sapiens, UniProt P29597); assay: JAK kinase domain activity, ADP-Glo kinase assay, TYK2; conditions: read-out: TYK2 JH1 IC50, substrate IRS1 (Y608) peptide, top concentration 10000 nM
Procedure: (§1) Experimental Example 2: JAK Kinase Domain Activity Analysis
(§2) Kinase domain activity of the JAK family was analyzed using the ADP-Glo kinase assay kit (Promega). The evaluation of the compound was performed according to the manufacturer's protocol, and the method thereof is as follows:
(§3) A 10 mM test compound was diluted to 0.5 mM using DMSO in a 96-well plate, and then 5-fold serial dilutions were performed in DMSO. The diluted compound was diluted to 1/10 with 1x reaction buffer (composition) to prepare a 5x compound solution. 5 uL of the 5x compound solution was mixed with a substrate prepared in the reaction buffer (40 mM Tris, 20 mM MgCl2 and 0.1 mg/ml BSA, 0.05 mM DTT, pH 7.5), and an ATP mixture (10 uL). Next, an enzyme reaction was initiated by adding the JAK family enzyme (10 uL) prepared in the reaction buffer. A short rotation was performed to settle all the solution to the bottom of the plate. The final concentrations of the test compounds in the reaction mixture were 10000, 2000, 400, 80, 16, and 3.2 nM. The concentrations of the control compounds (Brepocitinib or Tofacitinib) were 10 times lower. The enzyme reaction was performed at 25°C for 1 hour. 25 uL of ADP-Glo reagent was added and the reaction was performed at 25 °C for 1 hour. The reaction mixed 50 uL of kinase detection reagent and was stopped, and a luminescence signal was measured using Synergy neo (BioTek Instruments, Inc.). […]

JAK3 JH1 = JAK3 JH1 (Homo sapiens, UniProt P52333); assay: JAK kinase domain activity, ADP-Glo kinase assay, JAK3; conditions: read-out: JAK3 JH1 IC50, substrate Poly (4:1 Glu-Tyr) peptide, top concentration 10000 nM
Procedure: as §1, §2, §3

JAK1 JH1 = JAK1 JH1 (Homo sapiens, UniProt P23458); assay: JAK kinase domain activity, ADP-Glo kinase assay, JAK1; conditions: read-out: JAK1 JH1 IC50, substrate IRS1 (Y608) peptide, top concentration 10000 nM
Procedure: as §1, §2, §3

JAK2 JH1 = JAK2 JH1 (Homo sapiens, UniProt O60674); assay: JAK kinase domain activity, ADP-Glo kinase assay, JAK2; conditions: read-out: JAK2 JH1 IC50, substrate IGF1R peptide, top concentration 10000 nM
Procedure: as §1, §2, §3

TYK2/JAK1 = TYK2/JAK1 (Homo sapiens, UniProt P29597); assay: TYK2/JAK1 cell activity by IFNα2B stimulation, SEAP reporter in HEK-blue IFNα/β cells; conditions: HEK-blue IFNα/β cell line, human IFNα2B 1 U/mL, 24 hours, SEAP absorbance at 630 nm
Procedure: Experimental Example 3: Analysis of TYK2/JAKI cell activity by IFNα2B stimulation
An inhibition effect of TYK2/JAK1 activity of the test compound was analyzed using HEK-blue IFNα/β cell line (InvivoGen) that secretes SEAP (Secreted embryonic alkaline phosphatase) depending on the degree of cell stimulation. Cell culture and evaluation were performed according to the manufacturer's recommendations, and the method thereof is as follows: Cells cultured in a growth medium (Dulbecco's Modified Eagle Medium, 10% Fetal bovine serum, 1% Penicillin-Streptomycin, 100 ug/mL Normocin, 10 mg/mL Blasticidin, […] Zeocin) were collected and resuspended in a test medium (DMEM, 10% FBS, 1% Penicillin-Streptomycin), and 3.5x10^4 cells (160 uL) were dispensed into each well of a 96-well plate. After culturing for 24 hours in a 37°C CO2 incubator, 20 uL of a test compound or control compound (Deucravacitinib) diluted in the test medium was added, and then incubated at 37°C for 1 hour and 30 minutes. Next, 20 uL of human IFNα2B recombinant protein (PBL assay science) prepared with the test medium was added to each well (final concentration 1 U/mL) and then incubated at 37°C for 24 hours. 20 uL and 180 uL of cell supernatant were mixed with a QUANTI-blue reagent (InvivoGen) and then reacted at 37°C for 20-30 minutes. An absorbance at 630 nm was measured using Synergy neo (BioTek Instruments, Inc.). […] [Table 3] Result of TYK2/JAK1 cell activity by IFNα2B stimulation test

Row | SMILES | IC50 (TYK2 pseudokinase domain) | IC50 (TYK2 JH1) | IC50 (JAK3 JH1) | IC50 (JAK1 JH1) | IC50 (JAK2 JH1) | IC50 (TYK2/JAK1)
1 | CCOc1cc(-c2cn(C3CC(C#N)C3)c3cnc(NC(C)=O)cc23)nn(C2(C)CCOC2)c1=O (centres unmarked) | 4 nM | > 10000 nM | > 10000 nM | > 10000 nM | 1820 nM | –
2 | CC(C)COc1cc(-c2cn(C3CCC3)c3cnc(NC(N)=O)cc23)nn(C2(C)CCC2)c1=O | 32 nM | > 10000 nM | > 10000 nM | > 10000 nM | 6620 nM | < 50 nM
3 | COC1CN(c2cc(-c3cn(CC4CC(F)(F)C4)c4cnc(NC(C)=O)cc34)nn([C@@H](C)C(F)(F)F)c2=O)C1 | 21 nM | – | – | – | > 10000 nM | < 50 nM
4 | CC(=O)Nc1cc2c(-c3ccc(=O)n(C4(C)CCOC4)n3)cn(C3CC(C#N)C3)c2cn1 (centres unmarked) | 34 nM | > 10000 nM | > 10000 nM | > 10000 nM | > 10000 nM | 50 to 500 nM
5 | CC(=O)Nc1cc2c(-c3cc(N4CCC5(COC5)C4)c(=O)n(C4(C)CCC4)n3)cn(C)c2cn1 | 38 nM | > 10000 nM | > 10000 nM | > 10000 nM | 2380 nM | < 50 nM
6 | COC1CN(c2cc(-c3cn(C4CC4)c4cnc(NC(C)=O)cc34)nn(C(C)C)c2=O)C1 | 27 nM | – | – | – | – | 50 to 500 nM
7 | CC(=O)Nc1cc2c(-c3cc(C4CC4)c(=O)n(C4(C)CCOC4)n3)cn(C3CC(C#N)C3)c2cn1 (centres unmarked) | 18 nM | – | – | – | – | < 50 nM
8 | CC(=O)Nc1cc2c(-c3cc(OCC#N)c(=O)n(C4(C)CCC4)n3)cn(C)c2cn1 | 14 nM | – | – | – | – | 50 to 500 nM
9 | CO[C@H]1CCN(c2cc(-c3cn(C4CCC4)c4cnc(NC(C)=O)cc34)nn(C3(C)CCC3)c2=O)C1 | 130 nM | – | – | – | – | < 50 nM
10 | COC1CN(c2cc(-c3cn(C4CCC4)c4cnc(NC(C)=O)cc34)nn(C3(C)CCC3)c2=O)C1 | 66 nM | – | – | – | – | < 50 nM
11 | C=C(C)Cn1cc(-c2cc(N3CC(OC)C3)c(=O)n([C@@H](C)C(F)(F)F)n2)c2cc(NC(C)=O)ncc21 | 200 nM | – | – | – | – | 50 to 500 nM
12 | COC1CN(c2cc(-c3cn(C)c4cnc(NC(C)=O)cc34)nn(C(C)C)c2=O)C1 | 92 nM | – | – | – | – | 50 to 500 nM
13 | CC(=O)Nc1cc2c(-c3cc(OCC(C)C)c(=O)n(C(C)C)n3)cn(C3CC(C#N)C3)c2cn1 (centres unmarked) | 30 nM | – | – | – | – | < 50 nM
14 | CC(=O)Nc1cc2c(-c3cc(N4CCC5(COC5)C4)c(=O)n(C4(C)CCC4)n3)cn(C3CCC3)c2cn1 | 53 nM | – | – | – | – | < 50 nM
15 | CC(=O)Nc1cc2c(-c3cc(OCC(C)(F)F)c(=O)n([C@@H](C)C(F)(F)F)n3)cn(C3CC4(CCOCC4)C3)c2cn1 | 29 nM | – | – | – | – | < 50 nM

The remaining lines, values ahead:

Row | IC50 (TYK2 pseudokinase domain) | IC50 (TYK2 JH1) | IC50 (JAK3 JH1) | IC50 (JAK1 JH1) | IC50 (JAK2 JH1) | IC50 (TYK2/JAK1) | SMILES
16 | 355 nM | > 10000 nM | > 10000 nM | > 10000 nM | > 10000 nM | > 500 nM | CCn1cc(-c2cc(OCC(F)F)c(=O)n([C@H](C)C(F)(F)F)n2)c2cc(NC(C)=O)ncc21
17 | 29 nM | > 10000 nM | > 10000 nM | 4100 nM | 1710 nM | < 50 nM | CC(=O)Nc1cc2c(-c3cc(OCC(C)(F)F)c(=O)n([C@@H](C)C(F)(F)F)n3)cn(C)c2cn1
18 | 22 nM | > 10000 nM | > 10000 nM | > 10000 nM | > 10000 nM | < 50 nM | CCn1cc(-c2cc(OCC(C)(F)F)c(=O)n([C@@H](C)C(F)(F)F)n2)c2cc(NC(C)=O)ncc21
19 | 50 nM | > 10000 nM | > 10000 nM | > 10000 nM | > 10000 nM | < 50 nM | CCn1cc(-c2cc(OCC(F)(F)F)c(=O)n([C@@H](C)C(F)(F)F)n2)c2cc(NC(C)=O)ncc21
20 | 52 nM | > 10000 nM | > 10000 nM | > 10000 nM | > 10000 nM | < 50 nM | CC(=O)Nc1cc2c(-c3cc(OCC(C)C)c(=O)n(C(C)C(F)(F)F)n3)cn(C3CCC3)c2cn1 (centres unmarked)
21 | 81 nM | > 10000 nM | > 10000 nM | > 10000 nM | > 10000 nM | < 50 nM | CC(=O)Nc1cc2c(-c3cc(OCC(C)(F)F)c(=O)n([C@@H](C)C(F)(F)F)n3)cn(C(C)C)c2cn1
22 | 22 nM | 1460 nM | 3510 nM | 814 nM | 553 nM | < 50 nM | CC(C)COc1cc(-c2cn(C)c3cnc(NC(N)=O)cc23)nn(C(C)C(F)(F)F)c1=O (centres unmarked)
23 | 25 nM | > 10000 nM | > 10000 nM | > 10000 nM | > 10000 nM | < 50 nM | CC(=O)Nc1cc2c(-c3cc(OCC(C)(F)F)c(=O)n([C@@H](C)C(F)(F)F)n3)cn([C@H]3C[C@@H](C#N)C3)c2cn1
24 | 29 nM | > 10000 nM | > 10000 nM | 3490 nM | 1190 nM | < 50 nM | [2H]C([2H])([2H])C(=O)Nc1cc2c(-c3cc(OCC(C)(F)F)c(=O)n([C@@H](C)C(F)(F)F)n3)cn(C)c2cn1
25 | 23 nM | > 10000 nM | > 10000 nM | > 10000 nM | > 10000 nM | < 50 nM | CCn1cc(-c2cc(OCC(F)F)c(=O)n([C@@H](C)C(F)(F)F)n2)c2cc(NC(C)=O)ncc21
26 | 53 nM | – | – | – | – | < 50 nM | CCn1cc(-c2cc(OCC(F)F)c(=O)n(C(C)C(F)(F)F)n2)c2cc(NC(C)=O)ncc21 (centres unmarked)
27 | 26 nM | – | – | – | – | < 50 nM | CC(=O)Nc1cc2c(-c3cc(OCC(F)F)c(=O)n([C@@H](C)C(F)(F)F)n3)cn(C)c2cn1
28 | 57 nM | – | – | – | – | < 50 nM | CC(=O)Nc1cc2c(-c3cc(OCC(C)(F)F)c(=O)n([C@@H](C)C(F)(F)F)n3)cn(CC(F)F)c2cn1
29 | 54 nM | > 10000 nM | > 10000 nM | > 10000 nM | > 10000 nM | – | CC(=O)Nc1cc2c(-c3cc(OCC(C)(F)F)c(=O)n([C@@H](C)C(F)(F)F)n3)cn(CC3CC3)c2cn1
30 | 57 nM | – | – | – | – | 50 to 500 nM | COC1CN(c2cc(-c3cn(CC(C)(C)F)c4cnc(NC(C)=O)cc34)nn([C@@H](C)C(F)(F)F)c2=O)C1
31 | 24 nM | – | – | – | – | < 50 nM | CC(=O)Nc1cc2c(-c3cc(OCC(C)(F)F)c(=O)n([C@@H](C)C(F)(F)F)n3)cn(CCCC#N)c2cn1
32 | 16 nM | – | – | – | – | < 50 nM | COCCOc1cc(-c2cn(C3CC3)c3cnc(NC(C)=O)cc23)nn([C@@H](C)C(F)(F)F)c1=O
33 | 29 nM | – | – | – | > 10000 nM | < 50 nM | COC1CN(c2cc(-c3cn(CCC(F)(F)F)c4cnc(NC(C)=O)cc34)nn([C@@H](C)C(F)(F)F)c2=O)C1
34 | 27 nM | – | – | – | – | < 50 nM | CCn1cc(-c2cc(OCC(F)F)c(=O)n([C@@H](C)C(F)(F)F)n2)c2cc(NC(=O)CO)ncc21
